Protein sequences, listed by entry. Tags and fused reporters are not part of them. Lines headed by an entry give the natural chain unless they say otherwise; changes in a name come on top.
UniProt Q13133, whole entry: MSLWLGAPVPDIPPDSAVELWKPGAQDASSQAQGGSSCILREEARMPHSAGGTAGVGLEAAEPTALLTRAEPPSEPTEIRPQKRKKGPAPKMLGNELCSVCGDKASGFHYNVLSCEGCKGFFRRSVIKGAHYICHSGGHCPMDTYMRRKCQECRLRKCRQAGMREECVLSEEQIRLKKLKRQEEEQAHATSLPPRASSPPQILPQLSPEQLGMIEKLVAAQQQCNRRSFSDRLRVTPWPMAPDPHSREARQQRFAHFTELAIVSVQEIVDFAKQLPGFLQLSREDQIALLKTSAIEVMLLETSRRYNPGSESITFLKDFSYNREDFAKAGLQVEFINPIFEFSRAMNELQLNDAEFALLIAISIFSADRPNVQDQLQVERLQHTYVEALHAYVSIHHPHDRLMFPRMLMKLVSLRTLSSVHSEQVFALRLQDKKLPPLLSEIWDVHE
UniProt P37231: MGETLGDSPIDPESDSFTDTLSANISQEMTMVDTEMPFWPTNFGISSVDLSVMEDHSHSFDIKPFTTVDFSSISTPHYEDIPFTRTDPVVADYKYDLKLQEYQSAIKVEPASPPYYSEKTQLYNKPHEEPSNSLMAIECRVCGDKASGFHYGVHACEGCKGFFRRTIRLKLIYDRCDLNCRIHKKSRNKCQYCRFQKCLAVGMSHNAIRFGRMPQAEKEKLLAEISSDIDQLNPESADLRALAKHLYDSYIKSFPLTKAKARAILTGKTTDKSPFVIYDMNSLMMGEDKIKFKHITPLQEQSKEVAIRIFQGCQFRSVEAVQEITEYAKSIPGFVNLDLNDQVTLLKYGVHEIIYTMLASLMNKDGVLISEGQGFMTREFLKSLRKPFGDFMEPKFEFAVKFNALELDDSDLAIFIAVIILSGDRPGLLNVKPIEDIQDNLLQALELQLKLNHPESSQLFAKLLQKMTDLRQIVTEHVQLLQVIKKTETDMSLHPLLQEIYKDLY

According to ChEMBL document CHEMBL3120163, “Octulosonic acid derivatives from Roman chamomile (Chamaemelum nobile) with activities against inflammation and metabolic disorder” (J Nat Prod, 2014):

Tests used:
Format in all cases: cell-based
[1] = biological target: Oxysterols receptor LXR-alpha (Homo sapiens) (UniProt Q13133); assay: Activation of LXRalpha in human HepG2 cells at 30 uM after 24 hrs by luciferase reporter gene assay relative to vehicle-treated control
[2] = biological target: Peroxisome proliferator-activated receptor gamma (Homo sapiens) (UniProt P37231); assay: Activation of PPARgamma in human HepG2 cells at 30 uM after 24 hrs by luciferase reporter gene assay relative to vehicle-treated control
[3] = biological target: T1, Peroxisome proliferator-activated receptor alpha (Homo sapiens) (UniProt Q07869); assay: Activation of PPARalpha in human HepG2 cells at 30 uM after 24 hrs by luciferase reporter gene assay relative to vehicle-treated control
T1 sequence (whole entry): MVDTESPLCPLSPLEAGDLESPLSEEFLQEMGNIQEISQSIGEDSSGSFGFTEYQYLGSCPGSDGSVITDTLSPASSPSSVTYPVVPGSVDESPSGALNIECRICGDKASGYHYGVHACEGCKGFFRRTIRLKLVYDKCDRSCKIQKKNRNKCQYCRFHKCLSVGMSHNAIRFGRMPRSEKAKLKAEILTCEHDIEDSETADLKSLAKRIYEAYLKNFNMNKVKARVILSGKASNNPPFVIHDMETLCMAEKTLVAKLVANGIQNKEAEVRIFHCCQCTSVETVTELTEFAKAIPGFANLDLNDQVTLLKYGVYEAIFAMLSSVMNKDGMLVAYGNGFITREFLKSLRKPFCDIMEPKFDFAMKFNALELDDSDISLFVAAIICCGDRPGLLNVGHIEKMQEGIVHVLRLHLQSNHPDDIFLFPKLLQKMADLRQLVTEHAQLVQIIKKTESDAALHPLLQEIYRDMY

[4] = biological target: T2, Growth/differentiation factor 15 (Homo sapiens) (UniProt Q99988); assay: Activation of NAG-1 in human SW1353 cells at 50 uM after 24 hrs by luciferase reporter gene assay relative to vehicle-treated control
T2 sequence (whole entry): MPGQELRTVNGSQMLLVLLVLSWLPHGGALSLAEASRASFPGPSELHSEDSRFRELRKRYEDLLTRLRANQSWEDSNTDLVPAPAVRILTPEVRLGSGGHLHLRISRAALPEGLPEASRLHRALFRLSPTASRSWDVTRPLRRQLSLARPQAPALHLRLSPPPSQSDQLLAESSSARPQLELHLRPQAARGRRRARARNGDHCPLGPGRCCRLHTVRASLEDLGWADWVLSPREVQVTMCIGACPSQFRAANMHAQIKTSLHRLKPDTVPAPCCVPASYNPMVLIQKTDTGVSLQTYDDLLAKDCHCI

| Compound | fold change (FC) [1] | fold change (FC) [2] | fold change (FC) [3] | fold change (FC) [4] |
| --- | --- | --- | --- | --- |
| COC(=O)[C@]12C[C@@H](OC(=O)/C=C/c3ccc(O)c(O)c3)[C@@H](OC(=O)/C=C/c3ccc(O)c(O)c3)[C@@H](O1)[C@@H](COC(=O)/C=C/c1ccc(O)c(O)c1)O2 (relative stereo) | 1.11 | 2.09 | 1.35 | 2.12 |
| COC(=O)[C@]12C[C@@H](OC(=O)/C=C/c3ccc(O)c(O)c3)[C@@H](O)[C@H](O1)[C@@H](COC(=O)/C=C/c1ccc(O)c(O)c1)O2 (relative stereo) | 1.06 | 1.59 | 1.43 | 2.3 |
| COC(=O)[C@]12C[C@@H](O)[C@@H](O)[C@H](O1)[C@@H](COC(=O)/C=C/c1ccc(O)c(O)c1)O2 (relative stereo) | 1.22 | 1.04 | 1.09 | 3.1 |
| O=C(/C=C/c1ccc(O)c(O)c1)OC[C@H]1O[C@@]2(C(=O)O)C[C@@H](OC(=O)/C=C/c3ccc(O)c(O)c3)[C@@H](OC(=O)/C=C/c3ccc(O)c(O)c3)[C@H]1O2 (relative stereo) | 1.14 | 1.68 | 1 | 2.63 |
| O=C(/C=C/c1ccc(O)c(O)c1)OC[C@H]1O[C@@]2(C(=O)O)C[C@@H](OC(=O)/C=C/c3ccc(O)c(O)c3)[C@@H](O)[C@@H]1O2 (relative stereo) | 1.59 | 1.25 | 1.21 | 2.34 |
| O=C(/C=C/c1ccc(O)c(O)c1)OC[C@H]1O[C@@]2(C(=O)O)C[C@@H](O)[C@@H](O)[C@@H]1O2 (relative stereo) | 1.12 | 1.18 | 1.2 | 3.2 |
